Values joined by “and” are separate entries in the source; they are usually repeats but may differ in a detail not shown here. Equal values may be shown once.
Key:
[1] = pwMS, single timepoint 2-h post-administration; cited from earlier work
[2] = Nonhuman primate PK study, plasma and CSF; conditions: oral 10 mg/kg
BTK [3] = molecular target: T1, BTK (Homo sapiens, UniProt Q06187); assay: biochemical
BTK [4] = molecular target: T1, BTK; assay: Microfluidic kinetic assay of BTK phosphotransferase activity

The chains behind the UniProt entries cited, without tags or fusion partners. Where a name states a change or a piece, a line headed by the entry shows the natural chain unless it says otherwise.
UniProt Q06187: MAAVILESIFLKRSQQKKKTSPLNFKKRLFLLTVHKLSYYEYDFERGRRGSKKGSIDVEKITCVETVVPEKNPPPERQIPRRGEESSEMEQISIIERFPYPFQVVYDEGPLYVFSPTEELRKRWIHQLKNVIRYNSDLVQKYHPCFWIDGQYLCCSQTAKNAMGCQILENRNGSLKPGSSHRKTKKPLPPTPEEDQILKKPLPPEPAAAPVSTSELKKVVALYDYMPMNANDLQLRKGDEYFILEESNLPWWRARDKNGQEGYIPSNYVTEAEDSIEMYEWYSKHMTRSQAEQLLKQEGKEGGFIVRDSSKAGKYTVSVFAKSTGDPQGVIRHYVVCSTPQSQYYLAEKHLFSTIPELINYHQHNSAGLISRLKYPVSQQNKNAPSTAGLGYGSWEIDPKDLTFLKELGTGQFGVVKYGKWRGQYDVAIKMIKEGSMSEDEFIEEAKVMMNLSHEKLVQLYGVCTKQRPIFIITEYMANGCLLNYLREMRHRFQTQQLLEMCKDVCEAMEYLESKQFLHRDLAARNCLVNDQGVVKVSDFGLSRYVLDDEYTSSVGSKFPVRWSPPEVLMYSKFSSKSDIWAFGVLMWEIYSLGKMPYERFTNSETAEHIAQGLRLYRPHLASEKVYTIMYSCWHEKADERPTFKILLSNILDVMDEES

Row | CSF Cmax [2] [nM] | IC50 (BTK [3]) [nM] | Ki (BTK [4]) [nM] | Compound | CSF concentration [1]
1 | 7.45 |  |  | C=CC(=O)N1CCC(CNc2ncnc(N)c2-c2ccc(Oc3ccccc3)cc2)CC1 [Evobrutinib] | 3.2 ng/mL and 7.45 nM
2 |  | 6.21 | 4.7 | C[C@H]1CN(C2COC2)CCN1c1ccc(Nc2cc(-c3ccnc(N4CCn5c(cc6c5CC(C)(C)C6)C4=O)c3CO)cn(C)c2=O)nc1 [Fenebrutinib] | 

Reference: article PMC11315827 (Drugs in R&D, 2024)
